Only a part is listed here, and it is no random draw. Calls of active or inactive are those of the source.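 Rule for the calls: active = mean normalized replicate activation at least 10% and every replicate at or above 10%; inconclusive = only one of the two criteria met; inactive = mean below 10% and not all replicates reach 10%.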
Assay: Xi reactivation inducers in mouse fibroblasts – imaging, XiGFP fibroblasts, GFP high-content imaging, set 2, primary screen (AID 743238);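 note: 0% = median of on-plate neutral control wells and 100% = ellipticine 6 µM median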
Settings: % GFP-positive cells imaging, 3 d, at 7.58 µM, stronger effect = higher value, cells co-treated with 5-aza-dC sensitizer, scaled so ellipticine positive control = 100%
In short: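 assay system = SV40-immortalized XiGFP fibroblast cells, line 68-5-11 | buffer or medium = DMEM plus 5-aza-dC sensitizer | doses = single-point pinned compound dosing | times = 3-day compound exposure, then 15 min fixation at room temperature | benchmarks = positive control ellipticine, 6 µM final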

| SMILES | activation |
| --- | --- |
| O=C(OC1CN2CCC1CC2)c1cccc2[nH]cnc12 (configuration not stated) | inactive: 0.017% |
| CC(C)NC(=O)NP(=O)(Oc1ccccc1)Oc1ccccc1 | inactive: -0.0165% |
| CC(C)c1ccc(OP(=O)(Nc2ccccn2)Oc2ccccc2F)cc1 (configuration not stated) | inactive: -0.135% |
| COC(=O)C1(C)COP(=O)(N2CCCCCC2)OC1 (configuration not stated) | inactive: 0.522% |
| Cc1ccc(OP(=O)(Nc2ccc([N+](=O)[O-])cn2)Oc2ccc(C)cc2)cc1 | inactive: -0.007% |
| [N-]=[N+]=NC1CCCCC1NC(=O)c1cc([N+](=O)[O-])cc([N+](=O)[O-])c1 (configuration not stated) | inactive: 0.12% |
| Cc1ccc2nc3c(c(C)c2c1)CC(C(Cl)Cl)S3 (configuration not stated) | inactive: 0.05% |
| COc1cc(C(=O)NCC2(N3CCOCC3)CCCCC2)ccc1OCC(C)C | inactive: -0.0075% |
| O=[N+]([O-])c1ccc(-c2cc([N+](=O)[O-])c(O)c([N+](=O)[O-])c2)cc1 | inactive: 0.0055% |
| C[As](=O)(O)c1cccc(C(=O)O)c1 | inactive: -0.102% |
| O=[As](O)(c1ccc(O)cc1)c1ccccc1O | inactive: 0.0645% |
| O=[N+]([O-])c1cc(Oc2ccc([N+](=O)[O-])cc2C(F)(F)F)cc([N+](=O)[O-])c1 | inactive: -0.108% |
| COc1ccc(N/C(=N/P(=O)(N2CCOCC2)N2CCOCC2)N2CCOCC2)cc1 | inactive: -0.0215% |
| O=P1(N(CCCl)CCCl)OCCCN1CCCl (configuration not stated) | inactive: -0.091% |
| O=P1(N(CCCl)CCCl)Nc2ccccc2N1 | inactive: 0.0335% |
| COc1cc(I)ccc1[As](=O)(O)O | inactive: -0.118% |
| COc1ccc2nc(NP(=O)(c3ccccc3)c3ccccc3)sc2c1 | inactive: 0.0065% |
| Cc1c2c(nc3ccccc13)SC(C(Cl)Cl)C2 (configuration not stated) | inactive: 0% |
| Cc1cc(=O)[nH]c(N[N+](=O)[O-])n1 | inactive: 0.293% |
| O=C(OC1CN2CCC1CC2)c1cccc([N+](=O)[O-])c1 (configuration not stated) | inactive: 0.0925% |
| CCOC(=O)c1ccc(NC(=O)C(C)(CCl)SC)cc1 (configuration not stated) | inactive: -0.072% |

| SMILES | activation |
| --- | --- |
| O=C(O)C(=O)c1ccc(N(CCCl)CCCl)cc1 | inactive: 0.064% |
| O=C(Nc1ccncc1[N+](=O)[O-])c1ccc([N+](=O)[O-])cc1[N+](=O)[O-] | inactive: 0.136% |
| COC(=O)C1(C)COP(=O)(N2CCCC2)OC1 (configuration not stated) | inactive: 0.0985% |
| Cc1cc(SC(NC=O)C(Cl)(Cl)Cl)ncn1 (configuration not stated) | inactive: 0.117% |
| O=P(Nc1ccccn1)(c1cccc2ccccc12)c1cccc2ccccc12 | inactive: 0.212% |
| O=[N+]([O-])c1ccc(Nc2ccc(Oc3ccc([N+](=O)[O-])cc3[N+](=O)[O-])cc2)c([N+](=O)[O-])c1 | inactive: 0.211% |
| CCOC(=O)Nc1cccc([As](=O)(O)O)c1 | inactive: -0.05% |
| COP(=O)(OC)N1CC1c1ccccc1 (configuration not stated) | inactive: 0.254% |
| Cc1cc(SC(NC(=O)c2ccccc2)C(Cl)(Cl)Cl)nc(C(C)C)n1 (configuration not stated) | inactive: 0.148% |
| CCCCOc1ccc(C(=O)NCC2(N3CCCCC3)CCCCC2)cc1OC | inactive: -0.003% |
| O=C(O)C(O)c1ccc(N(CCCl)CCCl)cc1 (configuration not stated) | inactive: -0.0235% |
| CCOC(=O)Nc1ccc([As](=O)(O)O)c(O)c1 | inactive: 0.5% |
| CC1CCNP(=O)(N(CCCl)CCCl)O1 (configuration not stated) | inactive: 0.0005% |
| Nc1cccc([As](=O)(O)c2ccccc2)c1 | inactive: -0.0065% |
| NS(=O)(=O)c1cccc(NC(=O)COC(=O)C(O)(c2ccccc2)c2ccccc2)c1 | inactive: -0.054% |
| O=[As](O)(c1cccs1)c1cccs1 | inactive: -0.0145% |
| Cc1ccc(S(=O)(=O)N(CCCN)CCCc2c(C)nc(N)[nH]c2=O)cc1 | inactive: 0.0125% |
| CN(C)C1(CNC(=O)c2ccc(S(C)(=O)=O)cc2)CCCCC1 | inactive: 0.044% |
| CCCC1OP(=O)(Nc2ccccc2)OCC1CC (configuration not stated) | inactive: 0.362% |
| O=C(/C=C/c1ccccc1)OC1CN2CCC1CC2 (configuration not stated) | inactive: 0.135% |
| Cc1ccc(C(=O)OC2CN3CCC2CC3)cc1 (configuration not stated) | inactive: 0.0385% |

| SMILES | activation |
| --- | --- |
| CC1CCC(C(C)C)C(OP(=O)(Nc2ccccn2)c2ccccc2)C1 (configuration not stated) | inactive: 0.13% |
| CN(C(=O)Cc1ccc(Cl)c(Cl)c1)[C@@H]1CCCC[C@H]1N1CCCC1 | inactive: 0.0735% |
| CC(C)/C=N\N=C(\N)N[N+](=O)[O-] | inactive: 0% |
| COc1ccccc1CNC(=O)COC(=O)C(O)(c1ccccc1)c1ccccc1 | inactive: -0.0955% |
| CC(C)(C)C(=O)NC(Sc1ncccn1)C(Cl)(Cl)Cl (configuration not stated) | inactive: -0.328% |
| O=P1(N(CCCl)CCCl)NCCC(C(F)(F)F)O1 (configuration not stated) | inactive: 0.101% |
| CCOP(=O)(NC(=NC(C)c1ccccc1)NC(C)c1ccccc1)OCC (configuration not stated) | inactive: -0.0385% |
| CCC1=CC2Cc3nc4ccc(Cl)cc4c(N)c3C(C1)C2 (configuration not stated) | inactive: -0.0175% |
| CN(CCCl)Cc1cc(Cl)c(NC2=NCCN2)c(Cl)c1 | inactive: 0.133% |
| CCOP(=O)(Nc1ccc(C)cn1)OCC | inactive: 0.025% |
| CCOP(=O)(Nc1cccc2ccccc12)OCC | inactive: 0.137% |
| Nc1cccc2c([As](=O)(O)O)cccc12 | inactive: -0.0195% |
| Cc1ccc(NCCc2c([N+](=O)[O-])cc([N+](=O)[O-])cc2[N+](=O)[O-])cc1 | inactive: -0.0035% |
| CCCOP(=S)(Nc1nc(N)cc(=O)[nH]1)OCCC | inactive: -0.036% |
| O=[As](O)(c1cccc(O)c1)c1cccc(O)c1 | inactive: 0.759% |
| O=C(OC1CN2CCC1CC2)c1ccc(Cl)cc1 (configuration not stated) | inactive: 0.0295% |
| CS(=O)(=O)c1ccc(Cl)c(NC(=O)COC(=O)C(O)(c2ccccc2)c2ccccc2)c1 | inactive: -0.0365% |
| COc1cc(C(=O)NCC2(N3CCOCC3)CCCCC2)cc(Cl)c1OC(C)C | inactive: 0% |
| CN(C(=O)Cc1ccccc1)[C@@H]1CC[C@]2(CCCO2)C[C@H]1N1CCCC1 | inactive: -0.133% |
| N#CCCN(C(=O)COC(=O)C(O)(c1ccccc1)c1ccccc1)c1ccc(F)cc1 | inactive: -0.226% |

From PubChem BioAssay AID743238 (Broad Institute, 2013)
